# The entries are a selection whose mix differs from that of the whole data set. Results filed as inconclusive are left out. The source made the active and inactive calls. Calls follow the shape of the dose curve; as a rule, active = well fitted activation curve with a large enough effect; inconclusive = small, poorly fitted or top-dose-only effect; inactive = no such curve, though single readings can be large or run the other way.
# Protein sequences, listed by entry. Tags and fused reporters are not part of them.
# UniProt P04637, whole entry: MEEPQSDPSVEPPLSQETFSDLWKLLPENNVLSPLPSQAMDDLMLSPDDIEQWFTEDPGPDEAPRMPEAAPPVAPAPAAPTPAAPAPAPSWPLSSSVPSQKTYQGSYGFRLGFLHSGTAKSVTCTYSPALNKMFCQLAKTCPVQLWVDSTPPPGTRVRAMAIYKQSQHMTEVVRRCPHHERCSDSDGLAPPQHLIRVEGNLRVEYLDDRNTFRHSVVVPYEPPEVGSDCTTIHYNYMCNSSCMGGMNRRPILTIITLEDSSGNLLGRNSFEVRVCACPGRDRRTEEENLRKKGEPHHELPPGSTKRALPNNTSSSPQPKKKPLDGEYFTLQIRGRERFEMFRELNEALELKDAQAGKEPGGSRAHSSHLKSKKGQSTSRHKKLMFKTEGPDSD
# Target: Cellular tumor antigen p53 (Homo sapiens) (UniProt P04637)
# Assay: Primary qHTS for small molecule compounds that upregulate eGFP-tagged delta133p53alpha (in N-terminal) cells. (AID 2060322);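 also: cells pre-induced with doxycycline then dosed without doxycycline; series mostly up to about 56 µM; 0% = DMSO vehicle and 100% = reference activator; nearly all actives have a fitted effect of over 75% in size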
# Conditions: NCI-H358 eGFP-delta133p53alpha fluorescence, 24 h; hits give high values
compound,measurement,value
Cc1cccc([N+](=O)[O-])c1[N+](=O)[O-],activation,inactive: -21.8%
